In patent US6316594A, “Antimicrobial peptide isolated from parasilurus asotus and its uses” (priority 1998, dated 2001):

Tested on: human erythrocytes
Test: Hemolytic activity assay
Settings: peptide 200 μg/ml
Protocol: The hemolytic activity of the antimicrobial peptide was assayed as described by Park et al. (9).

Q: How did the hemolysis turn out when `CC[C@H](C)[C@H](NC(=O)CN)C(=O)NCC(=O)N[C@@H](C)C(=O)N[C@H](C(=O)N[C@@H](CC(C)C)C(=O)N[C@@H](CCCCN)C(=O)N[C@H](C(=O)N[C@@H](CC(C)C)C(=O)N[C@H](C(=O)N[C@H](C(=O)NCC(=O)N[C@@H](CC(C)C)C(=O)N1CCC[C@H]1C(=O)N[C@@H](C)C(=O)N[C@@H](CC(C)C)C(=O)N[C@H](C(=O)N[C@@H](CO)C(=O)N[C@@H](Cc1c[nH]c2ccccc12)C(=O)N[C@H](C(=O)N[C@@H](CCCCN)C(=O)N[C@@H](CCCNC(=N)N)C(=O)N[C@@H](CCCCN)C(=O)N[C@@H](CCCNC(=N)N)C(=O)N[C@@H](CCC(N)=O)C(=O)N[C@@H](CCC(N)=O)C(N)=O)[C@@H](C)CC)[C@@H](C)CC)[C@@H](C)O)[C@@H](C)O)C(C)C)C(C)C` [melittin, reference compound] was run?
A: 99.2%
